This is an account of results in article PMC12519216.

This experiment deals with acyl carrier protein (ACP), unacylated form (mouse (endogenous in cerebellum)) (UniProt Q9CR21). Nature of the experiment: SDS-PAGE immunoblot; brain lysates in RIPA buffer, WT and Mecr285/del10 mice; NuPAGE 4 to 12% Bis-Tris gel; blot with ACP antibodies. (In western blotting, separated proteins are transferred to a membrane and probed.)

Turning to “acyl carrier protein (ACP), unacylated form (from UniProt Q9CR21 69-156) (natural protein)”, the stoichiometry N (as a rule, a count of units in the complex or per binding partner) worked out at 2.
